Target: Histamine H3 receptor (Homo sapiens, UniProt Q9Y5N1)
Test: Displacement of [3H] N-alpha methylhistamine from human recombinant histamine H3 receptor expressed in HEK293 cells measured after 90 mins
Format: cell-based

Protein sequences, listed by entry. Tags and fused reporters are not part of them. Lines headed by an entry give the natural chain unless they say otherwise; changes in a name come on top.
UniProt Q9Y5N1: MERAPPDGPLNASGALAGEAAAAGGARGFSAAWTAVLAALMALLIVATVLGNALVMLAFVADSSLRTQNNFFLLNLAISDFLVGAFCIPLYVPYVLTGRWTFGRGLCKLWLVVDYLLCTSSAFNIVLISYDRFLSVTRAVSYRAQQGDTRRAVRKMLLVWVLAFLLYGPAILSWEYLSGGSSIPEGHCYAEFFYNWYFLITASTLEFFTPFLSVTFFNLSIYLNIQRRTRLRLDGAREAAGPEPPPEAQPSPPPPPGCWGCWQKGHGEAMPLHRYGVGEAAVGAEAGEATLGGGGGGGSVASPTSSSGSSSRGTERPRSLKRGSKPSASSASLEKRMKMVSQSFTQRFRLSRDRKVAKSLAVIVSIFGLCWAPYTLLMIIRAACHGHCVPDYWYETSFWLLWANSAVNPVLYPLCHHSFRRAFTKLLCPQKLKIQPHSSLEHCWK

O=C(c1ccc(OCCCc2cnc[nH]2)cc1)C1CC1 [CIPROXIFAN]
Ki: 224 nM
